These are literature values, as cited in article PMC5576036.

Sequences of proteins named here, by UniProt entry; tags and fusion partners are left off. Residues count along the entry.
UniProt P01589, 22-240, chain 1 of 3: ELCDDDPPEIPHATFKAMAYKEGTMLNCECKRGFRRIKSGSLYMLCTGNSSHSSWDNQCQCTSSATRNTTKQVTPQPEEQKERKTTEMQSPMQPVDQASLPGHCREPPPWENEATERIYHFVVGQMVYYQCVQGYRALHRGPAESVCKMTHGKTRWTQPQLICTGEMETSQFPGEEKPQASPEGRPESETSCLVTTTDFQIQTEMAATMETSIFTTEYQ
UniProt P60568, 21-153: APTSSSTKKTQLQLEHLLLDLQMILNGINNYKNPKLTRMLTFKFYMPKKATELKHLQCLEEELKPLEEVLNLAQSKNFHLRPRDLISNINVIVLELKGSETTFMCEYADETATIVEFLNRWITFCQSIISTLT

In this data set the target is high-affinity IL-2R (Homo sapiens) (UniProt P01589).

As for IL-2 (from UniProt P60568), the Kd was 0.01 nM.
